The list shows a part of the results, in another mix than the full data. The source made the active and inactive calls.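 Rule for the calls: active = activation above the mean of all tested compounds plus 3 SD (cut at about 5.5% in these data); inactive = the rest.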
Tested on: DAF-12 nuclear receptor (Haemonchus contortus)
Assay: H. contortus DAF-12 nuclear receptor activators, primary screen, cell-based, luminescence, HEK293, lit1-tk-luc reporter (AID 652067);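 note: 100% = response to 3 µM Δ7-dafachronic acid high control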
Conditions: HEK293 hcDAF-12 lit1-tk-luc reporter, at 6.8 µM, active compounds read high, 0% DMSO, 100% Δ7-dafachronic acid

| Compound | activation |
| --- | --- |
| Clc1ccc(Cl)c(NC2=NCC(CBr)S2)c1 (configuration not stated) | inactive: -0.82% |
| CN1CCCC(OC(=O)C(c2ccccc2)c2ccccc2)C1 (configuration not stated) | inactive: 1.34% |
| COc1ccccc1OP(=O)(Nc1ccc(C)cn1)Oc1ccccc1OC | inactive: 0.61% |
| Cc1ccc(OP(=O)(Nc2nccs2)Oc2ccc(C)cc2)cc1 | inactive: -1.73% |
| CN(C(=O)Cc1ccc(Cl)c(Cl)c1)[C@H]1CCCC[C@H]1N1CCCC1 | inactive: -1.25% |
| Cc1ccc(N/C(=N/P(=O)(N2CCOCC2)N2CCOCC2)N2CCOCC2)cc1 | inactive: 0.87% |
| NC(=O)c1cc([N+](=O)[O-])cc([N+](=O)[O-])c1N | inactive: -0.75% |
| Oc1ccccc1CNc1ccccn1 | inactive: -1.15% |
| O=C(NC(Sc1ccncn1)C(Cl)(Cl)Cl)c1ccccc1 (configuration not stated) | inactive: -0.44% |
| CC(C)CC(=O)NC(Sc1ccc(Cl)cc1)C(Cl)(Cl)Cl (configuration not stated) | inactive: 1.19% |
| Nc1cc(N)c2nonc2c1[N+](=O)[O-] | inactive: 0.94% |
| CCn1c(=O)n(C2CCN(CC3CCCCCCC3)C[C@H]2CO)c2ccccc21 (some centres not stated) | inactive: 0% |
| CCOP(=O)(Nc1ccccc1)OCC | inactive: -1.96% |
| Cc1cc(SC(NC(=O)c2ccc(F)cc2)C(Cl)(Cl)Cl)ncn1 (configuration not stated) | inactive: -0.23% |
| Cc1ccc(NP(=O)(Oc2ccccc2F)Oc2ccccc2F)nc1 | inactive: -0.27% |
| CN(C(=O)Cc1ccc(Cl)c(Cl)c1)[C@H]1CCCC[C@@H]1N1CCCC1 | inactive: -0.67% |
| CN(C)P(=O)(N(C)C)n1c(Nc2ccccc2)nnc1-c1ccccc1 | inactive: 0.57% |
| O=P(Nc1nc2ccc(Cl)cc2s1)(c1ccccc1)c1ccccc1 | inactive: -0.21% |
| O=C(O)c1ccccc1[As](=O)(O)O | inactive: 2.28% |
| CC(=O)Nc1ccc([As](=O)(O)O)cc1 | inactive: 2.6% |
| CCCC1OP(N)(=O)OCC1CC (configuration not stated) | inactive: 1.17% |
| Nc1cccc2ccc([As](=O)(O)O)cc12 | inactive: 1.6% |
| CN(C(=O)Cc1ccccc1)C1CC[C@@]2(CCCO2)C[C@@H]1N1CCCC1 (some centres not stated) | inactive: 0.2% |
| CCN(N=Nc1nonc1N)c1nonc1N | inactive: -3.24% |
| O=C(Nc1cc([As](=O)(O)O)ccc1O)c1ccccc1 | inactive: -0.56% |
| O=P1(N(CCCl)CCCl)OCCCS1 (configuration not stated) | inactive: 0.56% |

| Compound | activation |
| --- | --- |
| O=C(O)CNc1ccc([As](=O)(O)O)cc1 | inactive: -1.31% |
| O=[N+]([O-])c1cccc(NC2=NCC(CBr)S2)c1 (configuration not stated) | inactive: -0.56% |
| COC(=O)C1(C)COP(=O)(Nc2ccccc2)OC1 (configuration not stated) | inactive: -0.5% |
| O=[N+]([O-])c1ncn(CCn2ncnc2[N+](=O)[O-])n1 | inactive: -1.05% |
| CC(C)(C)C(=O)NC(Sc1ccncn1)C(Cl)(Cl)Cl (configuration not stated) | inactive: -1.63% |
| Cc1ccc(NP(=O)(Oc2ccccc2)Oc2ccccc2)nc1 | inactive: -1.63% |
| CCc1nc2c(n1)c1c(non1O)c1c2no[n+]1[O-] | inactive: -1.33% |
| O=[N+]([O-])c1cc([N+](=O)[O-])c(CCNc2ccccc2)c([N+](=O)[O-])c1 | inactive: 1.03% |
| O=[N+]([O-])c1cccc2n[nH]nc12 | inactive: -0.91% |
| CC(=O)N1C2C3N(C(C)=O)C1C1N(C(C)=O)C(C(N1C(C)=O)N3C(C)=O)N2C(C)=O | inactive: -0.23% |
| COc1ccc(C2=NCC(CBr)S2)cc1 (configuration not stated) | inactive: -0.49% |
| c1cc(-c2nn[nH]n2)ccc1-c1nn[nH]n1 | inactive: 1.49% |
| CC1CCN(C(=O)Oc2c(Cl)cc(Cl)c3cccnc23)CC1 | inactive: -2.33% |
| CC(C)=N/N=C(\N)N[N+](=O)[O-] | inactive: -1.14% |
| CC(C)c1nc(Nc2ccccc2)n(P(=O)(N(C)C)N(C)C)n1 | inactive: -1% |
| CN(C)C(=O)OCCc1n(C)cc[n+]1C | inactive: -0.32% |
| CCN(/C(=N/P(=O)(N1CCOCC1)N1CCOCC1)N1CCOCC1)c1ccc(OC)cc1 | active: 6.32% |
| Nc1ccc([As](=O)(O)c2ccc(N)cc2)cc1 | inactive: -0.99% |
| C[N+]1=C2C=CC=CC=C2SC12C([N+](=O)[O-])=CC([N+](=O)[O-])=C[C-]2[N+](=O)[O-] (configuration not stated) | inactive: -9.07% |
| c1nnnn1CCn1cnnn1 | inactive: -1.73% |
| CC(C)C(=O)NC(Sc1ccccc1)C(Cl)(Cl)Cl (configuration not stated) | inactive: -0.09% |
| O=P(Nc1nccs1)(c1ccccc1)c1ccccc1 | inactive: -1.19% |
| O=P(Nc1nc2ccccc2s1)(c1ccccc1)c1ccccc1 | inactive: 3.85% |
| C[C@H]1OP(=O)(Oc2ccccc2)[C@H](O)[C@H](O)[C@H]1N=[N+]=[N-] (some centres not stated) | inactive: -0.39% |
| O=P(Nc1ccccn1)(c1ccc(Br)cc1)c1ccc(Br)cc1 | inactive: -0.51% |
| CN(C)C1(CNC(=O)c2ccc(Cl)c(S(N)(=O)=O)c2)CCCCC1 | inactive: -0.73% |

| Compound | activation |
| --- | --- |
| Nc1ccc(CCCCOc2ccccc2)cc1 | inactive: 1.33% |
| COc1ccc(N)c([N+](=O)[O-])c1[N+](=O)[O-] | inactive: 0.04% |
| O=C(OC1CN2CCC1CC2)c1cccc(Cl)c1 (configuration not stated) | inactive: 0.14% |
| C/C(N)=N\P(=O)(OCc1ccccc1)OCc1ccccc1 | inactive: -0.99% |
| Nc1ccc([As](=O)(O)c2ccc([N+](=O)[O-])cc2)cc1 | inactive: -1.68% |
| C(Cc1nn[nH]n1)Cc1nn[nH]n1 | inactive: 0.38% |
| O=[As](O)(c1ccccc1)c1ccc(O)cc1 | inactive: -1.01% |
| CC(=O)NC(SC(=S)N(C)C)C(Cl)(Cl)Cl (configuration not stated) | inactive: -1.4% |
| O=[N+]([O-])c1ncn(CCn2cnc([N+](=O)[O-])n2)n1 | inactive: -0.29% |
| O=P1(N(CCCl)CCCl)OCCC2CCCCN21 (configuration not stated) | inactive: 0.29% |
| c1ccc(-c2nn[nH]n2)c(-c2nn[nH]n2)c1 | inactive: 0.23% |
| Cc1ccc(NP(=O)(Oc2cccc(C)c2)Oc2cccc(C)c2)nc1 | inactive: 1.34% |
| CCNC(=S)/N=C(\N)N[N+](=O)[O-] | inactive: 0.79% |
| O=C(NC1CCS(=O)(=O)C1)NP(=S)(Oc1ccccc1)Oc1ccccc1 (configuration not stated) | inactive: -1.07% |
| Cc1ccccc1OP(=O)(Nc1ccccn1)Oc1ccccc1C | inactive: -0.95% |
| CC(NC(=O)COC(=O)C(O)(c1ccccc1)c1ccccc1)c1ccccc1 (configuration not stated) | inactive: -1.34% |
| CN(C)C(=O)Oc1noc2ccccc12 | inactive: -1.54% |
| O=c1c2cc([N+](=O)[O-])ccc2[nH]c2c([N+](=O)[O-])cc([N+](=O)[O-])cc12 | inactive: -1% |
| O=C(OC1CN2CCC1CC2)c1ccccc1 (configuration not stated) | inactive: -0.5% |
| CCC(=O)N1C2C3N(C(=O)CC)C1C1N(C(=O)CC)C(C(N1C(=O)CC)N3C(=O)CC)N2C(=O)CC | inactive: -0.9% |
| COC(=O)c1cc2c(s1)N=C(c1ccccc1)N(C)P2(=O)N1CCOCC1 (configuration not stated) | inactive: -0.15% |
| CC(=O)NC(SC(=S)N(CC(C)C)CC(C)C)C(Cl)(Cl)Cl (configuration not stated) | inactive: 0.88% |
| Cc1ccc(OP(=O)(Nc2ccccn2)Oc2ccc(C)cc2)cc1 | inactive: 1.82% |
| CC(C)(C)C(=O)NC(Sc1ccccc1)C(Cl)(Cl)Cl (configuration not stated) | inactive: 0.29% |
| CCc1cc(O)c([N+](=O)[O-])c(C)c1[N+](=O)[O-] | inactive: 0.8% |
| O=P1(Nc2nc3ccc(Cl)cc3s2)COc2ccccc2O1 (configuration not stated) | inactive: -0.44% |

| Compound | activation |
| --- | --- |
| CCOc1ccc(C2=NCC(CBr)S2)cc1 (configuration not stated) | inactive: 1.14% |
| CC(=O)Nc1ccc([As](=O)(O)O)c(O)c1 | inactive: -0.86% |
| CC(=O)Nc1ccc(Oc2c([N+](=O)[O-])cc([N+](=O)[O-])cc2[N+](=O)[O-])cc1 | inactive: 1.15% |
| Cc1ccccc1CN(C)C(=O)COC(=O)C(O)(c1ccccc1)c1ccccc1 | inactive: -1.98% |
| C[C@@H]1C=CCP(=O)(Oc2ccccc2)O1 (some centres not stated) | inactive: -2.51% |
| C[C@H]1OP(=O)(Oc2ccccc2)C[C@@H]2O[C@@H]21 (some centres not stated) | inactive: -0.1% |
| N#C/C(=C\c1ccc(N(CCBr)CCBr)cc1)C(N)=O | inactive: 0.28% |
| CC(=O)c1ccc(N2CC2c2ccncc2)cc1 (configuration not stated) | inactive: -1.42% |
| COC(=O)C1(C)COP(=O)(NCc2ccccc2)OC1 (configuration not stated) | inactive: -1.2% |
| O=[As](O)(c1cccc(O)c1)c1cccc(O)c1 | inactive: -1.49% |
| Cc1cccc(OCC(=O)OC2CN3CCC2CC3)c1 (configuration not stated) | inactive: -0.57% |
| O=C(OC1CN2CCC1CC2)c1ccc(Cl)cc1 (configuration not stated) | inactive: -0.7% |
| COc1cc(C(=O)NCC2(N3CCOCC3)CCCCC2)cc(Cl)c1OC(C)C | inactive: 3.53% |
| O=[As](O)(O)c1cccnc1 | inactive: -0.04% |
| CS(=O)(=O)c1ccc(Cl)c(NC(=O)COC(=O)C(O)(c2ccccc2)c2ccccc2)c1 | inactive: 1.39% |
| COc1cc(C2NCCC3(OCCO3)C2(C)C)cc(OC)c1OC (configuration not stated) | inactive: 1.87% |
| CCOP(=O)(Nc1cccc2ccccc12)OCC | inactive: -2.11% |
| Cc1ccc(NCCc2c([N+](=O)[O-])cc([N+](=O)[O-])cc2[N+](=O)[O-])cc1 | inactive: -2.92% |
| Nc1cccc2c([As](=O)(O)O)cccc12 | inactive: 0.02% |
| CCCOP(=S)(Nc1nc(N)cc(=O)[nH]1)OCCC | inactive: 0.41% |
| Nc1ccccc1[As](=O)(O)c1ccccc1 | inactive: -1.39% |
| O=C(O)COc1ccc([As](=O)(O)O)cc1[N+](=O)[O-] | inactive: -2.26% |
| CCOP1(=S)c2c(C)nn(CCC#N)c2N=C(c2ccccc2F)N1C (configuration not stated) | inactive: -1.35% |
| O=P(Nc1nccs1)(Oc1ccccc1)Oc1ccccc1 | inactive: 0.9% |
